## scFv variants of Ab-14 (light chain) against a SARS-CoV-2 spike peptide

Values reported by Li et al. 2023, doi:10.1038/s41467-023-39022-2 (FLAb copy).

Target: peptide PDVDLGDISGINAS, taken from heptad repeat 2 (HR2) of SARS-CoV-2 spike.

Parent scFv Ab-14: VH joined to VL by a (GGGGS)3 linker. Changes lie in the light chain CDRs alone.
VH: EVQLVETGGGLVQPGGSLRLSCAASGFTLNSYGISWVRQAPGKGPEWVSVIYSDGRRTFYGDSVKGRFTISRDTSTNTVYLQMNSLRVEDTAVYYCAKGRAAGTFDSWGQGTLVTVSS
VL: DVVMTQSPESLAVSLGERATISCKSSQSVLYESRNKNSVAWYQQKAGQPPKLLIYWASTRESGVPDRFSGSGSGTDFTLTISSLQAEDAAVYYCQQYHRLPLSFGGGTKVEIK

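These sequences belong to a second round, designed from the earlier measurements on random variants of the parent. Group labels follow the data file (En: ensemble of fine-tuned language models; GP: Gaussian process model; HC: hill climbing; Gen: genetic algorithm; Gibbs: Gibbs sampling; a sequence that several methods proposed may carry one label only). AlphaSeq pools MATa yeast showing the antibodies with MATalpha yeast showing the peptide. After mating in shaken culture at 30 °C for 16 h, diploids were selected and their barcode pairs sequenced. A regression on co-assayed BCL2-family reference pairs converts the normalised counts of each replicate to an apparent Kd. There are six technical replicates.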

The parent's light chain CDRs are KSSQSVLYESRNKNSVA, WASTRES, QQYHRLPLS; each variant's own CDRs replace them letter for letter.
This list holds designs with more than six substitutions.
Numbers give log10(Kd / nM), so 0 is 1 nM and 3 is 1 µM. Smaller is tighter.
The mean shown is taken over the replicates in which the pair was detected.
An entry "no signal" has no value in the source: the pair was not observed among the diploids in any replicate. This suggests poor binding but is not conclusive.
Values of this round are not directly comparable with the first-round values of the same sequences.
In the paper, a design with two or fewer of six values counts as a poor binder.
Nonspecific signal, from three strains lacking the peptide, appeared in 4% of pairings of all light chain designs, centred on 2.64 (5% of these signals below 1.59); values are not corrected for it.

CDR-L1,CDR-L2,CDR-L3,group,"log10 Kd (nM), mean",detected
LVSQQELYEDRNKNSVA,HASQRLS,QQYHRLPLS,GP_Gibbs,0.82,6 of 6
KLSMSMRFLTEAKNSIA,ELVTRMS,QQYHRLPLS,En_HC,1.02,1 of 6
MISQLMNMGTFAINSVA,QASIRNQ,QQYDRLPLI,En_Gen,2.08,6 of 6
KLSDPTREWIANQSAVA,ETADTVH,QQYARLPLT,En_Gibbs,1.19,6 of 6
KLSQSDGYQARNSNSVA,HASQRED,QQYHRLPLS,GP_Gibbs,-0.18,6 of 6
KIYELGKGSIKTNNNIA,QTDIREL,QSYNRLPLS,En_Gibbs,1.02,6 of 6
KFMQSDLYESRNQNNVA,DASTRMS,QQYHRLPLS,GP_Gibbs,-0.43,6 of 6
QITNQTAGISNGIDSIA,EETNLTD,QQYNHLPLS,En_Gibbs,no signal,0 of 6
HLSDRLSYGKDLQAAVA,GVQTRMT,QQYARLPLL,En_Gibbs,0.37,6 of 6
KISMSYRYESQNKNNIA,EMSRREN,QQYHRLPLS,En_HC,0.99,5 of 6
TISQVMNTLTRHGNNVA,DLAERED,QQYFRLPLS,En_Gen,0.51,6 of 6
KLSALTEMEHKNRNSVA,ELVTRMS,QQYNRLPLS,En_Gen,2.60,2 of 6
TISQMFLGESRYRNSVA,QASTRES,QSYDRLPLS,En_HC,0.63,6 of 6
KVSNSVDGEDRNKNAVA,EASTRES,QQYHRLPLS,GP_Gibbs,-0.16,6 of 6
KLSQSVEYQSRDKNAVA,SAQTRES,QQYHRLPLS,GP_Gibbs,0.09,6 of 6
NLGGLDVNSTYEMDAVA,DVSEVGE,QHYSRLPLT,En_Gibbs,3.30,3 of 6
RIAEQYFEYMHNINNVA,ETECKAY,QQYAHLPLL,En_Gibbs,0.84,6 of 6
KLQMITGTEKVRGNNVA,EMETREN,QQYNRLPLS,En_Gen,no signal,0 of 6
MVTQMAMSGMTNKRSVA,NAEMRED,QQYHRLPLI,En_Gen,no signal,0 of 6
KISGQYRYEQLSKNSIA,EVQTRLK,QQYHRLPLS,En_HC,1.02,6 of 6
MISDLTMYGSRGKNSVA,DLSTRGS,QQYHRLPLS,En_HC,0.61,6 of 6
NVGQSMDGLSRNKNSVA,HQSTRED,QHYHRLPLS,En_HC,1.87,6 of 6
QISMILNFESLKGSNVA,QMETRVN,QQYDRLPLS,En_Gen,0.44,6 of 6
KQQFSSGMESRNKNSVA,SASTRCS,QQYHRLPLS,GP_Gibbs,0.52,6 of 6
MLSDLNRMGVRNTQSVA,DNSTRGE,QQYDRLPLS,En_HC,1.75,6 of 6
TVSQVYGMLSHNKNSVA,DMNTRGS,QQYDRLPLS,En_HC,-0.26,6 of 6
IVSQLMIWGMHVKNSIA,EAEQRLN,QQYERLPLF,En_Gen,1.43,6 of 6
KLSQSVGYESRNKSRVA,DNSTRGS,QQYDRLPLS,En_HC,2.35,3 of 6
MISQMFEGLSTSKNPVA,QVSTREN,QQYHRLPLS,En_HC,2.76,5 of 6
SLTAHHQEAKSAENSIA,EAVMLES,QQYHQLPLM,En_Gibbs,no signal,0 of 6
FMQMDNDRMTDAAKNIA,DVDMRET,QQYARLPFM,En_Gibbs,1.27,6 of 6
KISQSIMFMSGNKNAIA,QMEMREE,QQYHRLPLS,En_HC,0.37,6 of 6
KLSMITGHMSMSKNNVA,EMETREK,QQYNRLPLA,En_Gen,-0.23,6 of 6
KLSTSWLYESRNVNAVA,EASTRMD,QQYHRLPLS,GP_Gibbs,0.07,6 of 6
KLGSMVLLEYGTKNSIA,QQSTREE,QQYDRLPLS,En_HC,0.49,6 of 6
TISQSVNMTSHGRNSVA,QAEMRET,QQYDRLPLS,En_HC,1.52,6 of 6
TIADLMGHISKQTNNVA,DQNTRGD,QQYNRLPLS,En_Gen,0.44,6 of 6
MLSDLVKMGSRNRNSVA,DNSTRGS,QQYDRLPLS,En_HC,3.14,3 of 6
KFSQMVNTMSVSHSAVA,EMSTRPE,QQYNRLPLA,En_Gen,-0.05,6 of 6
MISDLTMYGSRNVNSVA,DLSHRGS,QQYDRLPLS,En_HC,0.51,6 of 6
IVSQVMSWGLHAKNSIA,EAQTRIN,QQYDRLPLF,En_Gen,1.10,6 of 6
TISTLMRYETSLKNAIA,NAQTREK,QQYHRLPIS,En_HC,0.64,6 of 6
KISQSILFMSGMNNAIA,QMEMREE,QQYHRLPLS,En_HC,0.65,6 of 6
KISMSYRYESQESNSIA,EMSTREE,QSYHRLPLS,En_HC,1.69,6 of 6
KFQQMVMMGDRNKNSVA,WASQRLQ,QQYHRLPLS,GP_Gibbs,1.13,6 of 6
KLGEATRFESSNKASIA,DNSTRES,QQYHRLPLS,En_HC,0.71,6 of 6
KQSQSVLMGERNKNSVA,NASYRLS,QQYHRLPLS,GP_Gibbs,-0.16,6 of 6
IVSQLMLWGMHVKNSIA,EAVTRIN,QQYERLPLF,En_Gen,no signal,0 of 6
KFSQMDLYESRNKNQVA,DASQRSS,QQYHRLPLS,GP_Gibbs,0.51,6 of 6
HLSLRLSYGKDLQNAVA,GVQHRMT,QQYARLPLL,En_Gibbs,0.96,6 of 6
KLSGFHNVESINKSNVA,EMVTREN,QQYDRLPLS,En_HC,2.20,6 of 6
KLKQSVGYESRNKSRVA,DNSTRES,QQYDRLPLS,En_HC,2.46,5 of 6
KLSQSWLYLSRNANSVA,NASQREE,QQYHRLPLS,GP_Gibbs,0.09,6 of 6